Experimental data: patent US20240000961A1, “ANTIBODY-BASED CONJUGATE FOR ENHANCING THERAPEUTIC EFFECT OF TARGETED THERAPEUTIC AGENT” (THE CATHOLIC UNIVERSITY OF KOREA INDUSTRY-ACADEMIC …, priority 2020, published 2024)

How the values were obtained:
NIH3T3 normal cells = assay type: cell-based; details: MTT, treated 4 hours then cultured 1 day
L929 normal cells = assay type: cell-based; details: MTT, treated 4 hours then cultured 1 day
[1] = tested on: SKOV3 cells, ovarian cell line expressing the EGFR; details: for cell apoptosis compared to cetuximab antibody (CTX) treatment groups: SKOV3, MTT
A431 cancer cells = test: Suppression of in vivo cancer growth; details: A431 tumours in BALB/c nude mice, intravenous, 0.5 mg/kg five times
Source text: Thereafter, the effect of suppressing the growth of cancer cells was confirmed by measuring the size and weight of the cancer tissue once every 2 to 3 days.

[2] = tested on: A2780 cells (low level of EGFR expression); test: Targeting ability by flow cytometry, A2780; assay type: cell-based; details: A2780, 2 hours, flow cytometer
[3] = tested on: SKOV3 cells (high level of EGFR expression); test: Cell targeting by confocal laser scanning microscopy, SKOV3; assay type: cell-based; details: SKOV3, 2 hours
Source text: (§1) The cell targeting of the cetuximab-maleimide-Pluronic F68-chlorin e6 according to cells with different levels of EGFR expression was visually confirmed by confocal laser scanning microscopy compared to cetuximab-maleimide-polyethylene glycol 2k-chlorin e6.
(§2) Thereafter, the treated cells were washed with a buffer solution and fixed with 4% paraformaldehyde.

ASPC-1 cancer cells = details: ASPC-1 tumour-bearing nude mice, intravenous, imaged for 120 hours
[4] = tested on: A2780 cells (low level of EGFR expression); test: Cell targeting by confocal laser scanning microscopy, A2780; assay type: cell-based; details: A2780, 2 hours
Source text: as §1, §2

[5] = tested on: SKOV3 cells (high level of EGFR expression); test: Targeting ability by flow cytometry, SKOV3; assay type: cell-based; details: SKOV3, 2 hours, flow cytometer

Substance | cytotoxicity (NIH3T3 normal cells) | cytotoxicity (L929 normal cells) | tumor growth compared to PBS control (A431 cancer cells) | other results
trastuzumab-maleimide-Pluronic F127 [Tra-Mal-PF127] | non-cytotoxic | non-cytotoxic | – | –
maleimide-Pluronic F127 [Mal-PF127] | – | – | – | cytotoxicity [1]: non-cytotoxic
cetuximab-maleimide-Pluronic F68 [CTX-Mal-PF68] | – | – | cancer growth was inhibited | cell apoptosis compared to cetuximab antibody (CTX) treatment groups [1]: more cell apoptosis
trastuzumab-maleimide-polyethylene glycol 2K [Tra-Mal-PEG2K, reference compound] | non-cytotoxic | non-cytotoxic | – | –
cetuximab [CTX] | – | – | grew less rapidly | –
cetuximab-maleimide-polyethylene glycol 2K [CTX-Mal-PEG2K] | – | – | grew less rapidly | –
cetuximab-maleimide-polyethylene glycol 6K [CTX-Mal-PEG6K] | – | – | grew less rapidly | –
cetuximab-maleimide-Pluronic F127 [CTX-Mal-PF127] | – | – | cancer growth was inhibited | cell apoptosis compared to cetuximab antibody (CTX) treatment groups [1]: more cell apoptosis
trastuzumab-maleimide-Pluronic F68 [Tra-Mal-PF68] | non-cytotoxic | non-cytotoxic | – | –
cetuximab-maleimide-Pluronic F68-chlorin e6 [CTX-Mal-PF68-Ce6] | – | – | – | fluorescence (targeting ability) compared to cetuximab-maleimide-polyethylene glycol 2k-chlorin e6 [2]: enhanced fluorescence; fluorescence intensity compared to CTX-Mal-PEG2K-Ce6 treatment group [3]: stronger; fluorescence of photosensitizer in cancer tissue compared to CTX-Mal-PEG2K-Ce6 injection group (ASPC-1 cancer cells): more strongly; fluorescence intensity compared to CTX-Mal-PEG2K-Ce6 treatment group [4]: stronger; fluorescence (targeting ability) compared to cetuximab-maleimide-polyethylene glycol 2k-chlorin e6 [5]: enhanced fluorescence
trastuzumab-maleimide-polyethylene glycol 6K [Tra-Mal-PEG6K, reference compound] | non-cytotoxic | non-cytotoxic | – | –
